Values quoted from earlier work, collected in patent US9695481B2, “Polynucleotides comprising a reporter sequence operatively linked to a regulatory element” (UNIVERSITEIT LEIDEN, priority 2010, dated 2017).

Assays:
Salmonella = conditions: cited from earlier work
[1] = cited from earlier work
[2] = test system: mouse ES cell lines containing a DsRed fluorescent reporter; conditions: cited from earlier work

Compound: [H]/N=C(/N)N/C(=N/[H])NCCc1ccccc1 [Phenformin HCl]
- Ames test (Salmonella): Neg.

Compound: Cc1noc(NS(=O)(=O)c2ccc(N)cc2)c1C [Sulfisoxazole]
- In vivo genotoxicity [1]: Neg.

Compound: Mitomycin C
- mES DsRed reporters [2]: Pos.

Structures can show the parent of a compound that is named as a salt.
